Earlier results, collected in patent EP0117302A2, “Phenothiazine derivatives” (THE WELLCOME FOUNDATION LIMITED, priority 1982, dated 1984).

Tested on: histamine
Conditions: literature value (R.B. Barlow, Introduction to Chemical Pharmacology, 1964); 60 min; cited from earlier work

CC(CN1c2ccccc2Sc2ccccc21)N(C)C (stereo not shown) [Promethazine, 10-(2-dimethylaminopropyl)phenothiazine]
pA2: 8.9*

Marks after values point to notes of the source that are not given here.
